Data on one substance can be found in US20060188964A1, “Processing for producing and crystallizing G-protein coupled receptors” (priority 2004, published 2006).

One experiment has as its target 5HT2c serotonin receptor (Rattus norvegicus, UniProt P08909). The note with it: tritiated LSD; membranes from GFP-selected HEK 293 cells expressing 5HT2c.
For a further experiment, the target named is T1, 5HT2c receptor (Rattus norvegicus, UniProt P08909).
T1 sequence (P08909 33-460): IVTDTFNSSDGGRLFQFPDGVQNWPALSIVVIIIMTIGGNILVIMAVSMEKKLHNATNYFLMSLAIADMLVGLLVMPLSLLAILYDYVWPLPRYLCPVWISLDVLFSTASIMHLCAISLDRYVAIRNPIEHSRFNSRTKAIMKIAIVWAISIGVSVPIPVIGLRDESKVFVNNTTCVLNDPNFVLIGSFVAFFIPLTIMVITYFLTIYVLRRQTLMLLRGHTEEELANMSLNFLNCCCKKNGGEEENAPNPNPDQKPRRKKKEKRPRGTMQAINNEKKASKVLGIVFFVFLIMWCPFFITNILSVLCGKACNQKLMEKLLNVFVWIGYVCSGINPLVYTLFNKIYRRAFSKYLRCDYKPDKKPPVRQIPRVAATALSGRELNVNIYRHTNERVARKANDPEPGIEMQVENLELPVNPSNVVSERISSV
The note with it: read-out: Kd(LSD); cell lines derived from tumors of 5HT2c-transformed NIH 3T3 cells; cited from earlier work.

Consider lysergic acid diethylamine [LSD], for which the Kd (as a rule, the constant that tells how readily two partners part at equilibrium) is roughly 1 nM at 5HT2c serotonin receptor and 2.2 nM at 5HT2c receptor.
